The target in assay [1] is T1, dopamine D1 receptor (D1DR) 89–98 (Homo sapiens, UniProt P21728).
T1 construct: D1DR 89–98
Description: UV spectroscopy binding to receptor peptide D1DR 89–98.

Amino acid sequences for entries named in this document (tags omitted). A change or cut given only in a name is not applied to a line headed by its entry.
UniProt P21728: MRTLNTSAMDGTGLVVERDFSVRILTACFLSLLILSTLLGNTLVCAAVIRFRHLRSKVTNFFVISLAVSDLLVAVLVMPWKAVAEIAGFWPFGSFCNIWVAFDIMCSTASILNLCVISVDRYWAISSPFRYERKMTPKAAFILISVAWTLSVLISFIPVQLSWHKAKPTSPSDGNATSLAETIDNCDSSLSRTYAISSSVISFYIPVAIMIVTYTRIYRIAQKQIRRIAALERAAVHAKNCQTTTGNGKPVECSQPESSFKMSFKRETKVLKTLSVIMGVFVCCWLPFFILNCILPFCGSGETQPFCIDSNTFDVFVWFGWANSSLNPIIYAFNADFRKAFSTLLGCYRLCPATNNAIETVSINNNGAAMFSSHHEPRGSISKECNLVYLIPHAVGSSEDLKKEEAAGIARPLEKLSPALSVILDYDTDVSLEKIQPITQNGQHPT
UniProt P06213: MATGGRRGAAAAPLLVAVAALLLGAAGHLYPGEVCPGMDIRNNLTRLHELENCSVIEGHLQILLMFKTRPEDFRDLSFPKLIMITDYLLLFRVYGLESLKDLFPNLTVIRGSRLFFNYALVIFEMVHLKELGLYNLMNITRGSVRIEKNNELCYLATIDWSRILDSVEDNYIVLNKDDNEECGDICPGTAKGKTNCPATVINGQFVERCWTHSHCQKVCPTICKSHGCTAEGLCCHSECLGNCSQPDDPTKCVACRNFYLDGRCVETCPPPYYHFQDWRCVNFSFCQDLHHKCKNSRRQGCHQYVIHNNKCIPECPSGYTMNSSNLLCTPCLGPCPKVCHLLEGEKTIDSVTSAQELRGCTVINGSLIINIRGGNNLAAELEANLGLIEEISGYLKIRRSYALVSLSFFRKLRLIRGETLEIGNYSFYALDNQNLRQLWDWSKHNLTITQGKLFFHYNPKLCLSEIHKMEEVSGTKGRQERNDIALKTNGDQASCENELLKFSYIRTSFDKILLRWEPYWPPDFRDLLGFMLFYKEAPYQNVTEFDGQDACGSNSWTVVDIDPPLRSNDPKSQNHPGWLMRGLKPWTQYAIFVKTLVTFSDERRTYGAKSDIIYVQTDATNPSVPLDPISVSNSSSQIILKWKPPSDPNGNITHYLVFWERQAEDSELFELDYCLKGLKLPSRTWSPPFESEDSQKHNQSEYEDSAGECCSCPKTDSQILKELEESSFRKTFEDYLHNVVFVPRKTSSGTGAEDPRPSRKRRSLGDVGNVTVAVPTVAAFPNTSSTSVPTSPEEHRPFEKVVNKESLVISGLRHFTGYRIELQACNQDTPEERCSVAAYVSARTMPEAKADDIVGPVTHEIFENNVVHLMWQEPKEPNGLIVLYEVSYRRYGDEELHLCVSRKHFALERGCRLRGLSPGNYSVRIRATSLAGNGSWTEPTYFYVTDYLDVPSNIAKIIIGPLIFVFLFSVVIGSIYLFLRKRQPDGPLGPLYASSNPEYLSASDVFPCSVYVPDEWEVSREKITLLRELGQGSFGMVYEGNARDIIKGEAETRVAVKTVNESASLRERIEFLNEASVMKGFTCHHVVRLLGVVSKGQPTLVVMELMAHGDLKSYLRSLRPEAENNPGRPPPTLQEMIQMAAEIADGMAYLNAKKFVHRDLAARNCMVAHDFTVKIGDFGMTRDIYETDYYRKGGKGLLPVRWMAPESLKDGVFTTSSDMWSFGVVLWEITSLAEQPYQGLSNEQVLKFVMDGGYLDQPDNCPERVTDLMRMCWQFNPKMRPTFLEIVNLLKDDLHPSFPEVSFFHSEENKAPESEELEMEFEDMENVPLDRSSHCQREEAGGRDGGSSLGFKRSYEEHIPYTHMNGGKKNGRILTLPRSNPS
UniProt P35372, whole entry: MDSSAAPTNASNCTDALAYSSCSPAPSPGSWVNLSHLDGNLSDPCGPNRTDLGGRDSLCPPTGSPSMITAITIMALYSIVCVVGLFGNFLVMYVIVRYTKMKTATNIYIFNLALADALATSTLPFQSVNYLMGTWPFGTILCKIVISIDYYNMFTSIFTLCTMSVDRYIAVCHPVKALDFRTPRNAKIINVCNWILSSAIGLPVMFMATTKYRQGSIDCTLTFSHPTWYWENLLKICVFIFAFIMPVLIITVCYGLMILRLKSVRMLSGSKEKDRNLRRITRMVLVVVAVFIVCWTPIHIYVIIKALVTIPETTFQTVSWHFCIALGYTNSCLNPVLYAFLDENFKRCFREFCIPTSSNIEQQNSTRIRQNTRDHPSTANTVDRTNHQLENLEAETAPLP

The target of assay [2] is T2, dopamine D1 receptor (D1DR) 170–188 (Homo sapiens, UniProt P21728).
T2 construct: D1DR 170–188
Description: UV spectroscopy binding to receptor peptide D1DR 170–188.

Assay [3] addresses T3, insulin receptor (INSR) 281–299 (Homo sapiens, UniProt P06213).
T3 construct: INSR 281–299
Description: UV spectroscopy binding to control peptide INSR 281–299.

Assay [4] deals with MuOPR 211–226 (Homo sapiens, UniProt P35372). To be noted: read-out: Kd @ 200 nm, MuOPR 211–226, low affinity binding.
Assay [5] addresses intact mu opioid receptors (muOPRs) (Homo sapiens, UniProt P35372). Details: intact mu opioid receptors (muOPRs); deca-histidine tag (N); made in house; host or cells: E. coli C43 (DE3). Particulars: read-out: Kd @ 210 nm, low affinity binding.

Structures are written as SMILES. Structures can show the parent of a compound that is named as a salt. Some results are limits rather than exact numbers.

With `NCCc1c[nH]c2ccc(O)cc12` [Serotonin], the Kd in assay [1] and in assay [2] was greater than 1000 µM in each case.

Compound `CN1CC[C@]23c4c5ccc(O)c4O[C@H]2[C@@H](O)C=C[C@H]3[C@H]1C5` [Morphine, morphine sulfate] yielded a Kd in assay [3] greater than 1 mM.

`CNC[C@H](O)c1ccc(O)c(O)c1` [Epinephrine HCl]: the dissociation constant (Kd) was 400 µM in assay [1], 900 µM in assay [2], 40 µM in assay [4] and 1 mM in assay [5].

In general, Kd refers to the equilibrium constant for the complex coming apart.

The values above are taken from PMC6747318, “Mutual Enhancement of Opioid and Adrenergic Receptors by Combinations of Opioids and Adrenergic Ligands Is Reflected in Molecular Complementarity of Ligands: Drug Development Possibilities” (International Journal of Molecular Sciences, 2019).
